Data on one substance can be found in patent publication US9215868B2, “Low-foam preparations for crop protection” (Bayer Intellectual Property GmbH, priority 2006, dated 2015).

The conditions of the series: additive alone dissolved at 2 g/l.

Consider “C12/C14-fatty alcohol diethylene glycol ether sulfate”, for which the “foam volume after 12 min” value was determined as 100 mL.
